Source: US9518033B2, “(4E)-4-(4-substituted benzylideneamino)-2,3-dihydro-3-substituted-2-thioxothiazole-5-carbonitriles as A2AR antagonist and process for preparation thereof” (COUNCIL OF SCIENTIFIC & INDUSTRIAL RESEARCH, priority 2013, dated 2016)

Molecular target: T1, human A2A receptors (Homo sapiens, UniProt P29274)
T1 construct: expressed in transfected cells; host or cells: HEK 293T
Assay: cAMP functional assay in NECA stimulated HEK293T cells
Type: cell-based
Settings: NECA stimulated HEK293T cells treated with 1 μM compound
Procedure: Standard curve was prepared using Logit-Log Paper plot by drawing percent bound (B/Bo) versus concentration of cAMP for the standards. The concentration of the cAMP in the samples was determined by interpolation.

Compound N#Cc1sc(=S)n(-c2ccccc2)c1/N=C/c1ccc(Br)cc1 [Compound 2n, (4E)4-(4-bromobenzylideneamino)-3-phenyl-2,3-dihydro-2-thioxothiazole-5-carbonitrile] has a cAMP concentration of 0.56 pmol/mL.
